Laboratory results published in PubChem BioAssay AID493002 (Sanford-Burnham Center for Chemical Genomics, 2010).

Tested on: S. cerevisiae tim23-1 mutant growth, luminescence
Assay: tim23-1 mutant yeast growth inhibitors, dose response, luminescence, uHTS hits (AID 493002);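 also: yeast grown roughly 22 hours at 25 °C before the luminescence read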

Row | SMILES | IC50 [µM]
1 | COc1cccc2c1C(=O)c1c(O)c3c(c(O)c1C2=O)C[C@@](O)(C(=O)CO)C[C@@H]3O[C@H]1C[C@H](N)[C@H](O)[C@H](C)O1 | 12.7
2 | COc1ccc(-c2ccc(NC(=O)c3ccco3)cc2)nn1 | 14.3
